The data set deals with T1, E. coli FabH (Escherichia coli, UniProt P0A6R0).
T1 sequence (P0A6R0 1-317): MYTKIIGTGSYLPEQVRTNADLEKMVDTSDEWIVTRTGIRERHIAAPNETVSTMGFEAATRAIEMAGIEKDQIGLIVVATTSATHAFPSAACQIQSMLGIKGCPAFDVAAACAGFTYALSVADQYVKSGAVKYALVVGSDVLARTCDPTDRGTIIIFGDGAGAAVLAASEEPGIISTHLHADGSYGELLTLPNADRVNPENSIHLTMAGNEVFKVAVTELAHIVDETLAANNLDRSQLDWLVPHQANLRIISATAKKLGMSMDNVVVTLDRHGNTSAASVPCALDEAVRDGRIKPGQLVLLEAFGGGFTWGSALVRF
In words: Kinetic analysis of E. coli FabH (optimized activity assay). The settings on record: read-out: Apparent Km; substrate of FabH; ping-pong mechanism, acetyl-CoA first substrate, malonyl-ACP second.

Here are results for 1 substance from US20040087506A1, “Methods of modulating FabH activity” (SmithKline Beecham Corporation, priority 1999, published 2004).

With malonyl-ACP, the Michaelis-Menten constant (Km) was 6.8 µM.

The Km is the concentration of substrate that gives half-maximal velocity.
